Assay results as given in patent US11331337B2, “Heparin and heparan sulphate oligosaccharides” (Agency for Science, Technology and Research, priority 2017, dated 2022).

Key:
[1] = tested on: Smad 1/5/9; assay: BMP-2-induced Smad 1/5/9 phosphorylation by Western blotting in C2C12 cells; type: cell-based, murine; conditions: BMP-2 100 ng/mL, 5 μg/mL
Experimental: C2C12 murine myoblast cells were cultured in DMEM, 10% FCS and 100 U/mL penicillin/streptomycin at 37° C. in 5% CO2. For experiments, cells were seeded at 2×10^4 cells/cm2 in tissue culture treated 12-well plates. After 24 h, cells were washed and media was replaced with treatment media (maintenance media with 5% FCS) with or without BMP-2 (100 ng/mL) and heparin, heparin oligosaccharides or desulfated heparins (5 μg/mL). At the indicated time points (24, 48 and 72 h), cells were washed with PBS and lysed with RIPA buffer in the presence of protease inhibitors (Merck-Millipore). Total protein was quantified using the BCA assay and subsequently separated by SDS-PAGE (5 μg total protein per condition). Proteins were then transferred to nitrocellulose membranes and blocked for 1 h in blocking buffer (Tris-buffered saline containing 5% (w/v) non-fat dry milk and 0.05% (v/v) Tween 20). Incubation with primary antibodies diluted at 1:1000 (pSmad 1/5/9), 1:500 (Smad 1/5/8) or 1:5000 (actin) was carried out overnight at 4° C. in blocking solution. Membranes were washed three times with Tris-buffered saline containing 0.05% (v/v) Tween 20 and incubated with IgG-specific peroxidase-conjugated secondary antibodies, diluted 1:10000 in blocking buffer. Blots were then washed and developed using SuperSignal West Pico Chemiluminescent substrate (Thermo Scientific) on Hyperfilm (GE Healthcare) and scanned. Blots are representative of three independent experiments.

[2] = tested on: Sprague Dawley rats; assay: Rat ectopic bone formation assay; type: in vivo; conditions: 8 weeks
Experimental: Thirteen female, Sprague Dawley rats weighing 120-150 g had four hind limb muscle pockets surgically created, two per limb. Each pocket was randomly filled with one of the following treatments; (1) Polycaprolactone tube (PT), (2) PT+collagen sponge (CS) (Ctrl), (3) PT+CS+BMP-2 (5 μg), (4) PT+CS+heparin (25 μg)+BMP-2 (5 μg), (5) PT+CS+dp8 (25 μg)+BMP-2 (5 μg), (6) PT+CS+dp10 (25 μg)+BMP-2 (5 μg), (7) PT+CS+dp12 (25 μg)+BMP-2 (5 μg), (8) PT+CS+de-2-O sulfated heparin (25 μg)+BMP-2 (5 μg) (9) PT+CS+de-6-O sulfated heparin (25 μg) +BMP-2 (5 μg, (10) PT+CS+de-N-sulfated heparin (25 μg)+BMP-2 (5 μg). There were 4 replicates for groups (1-3) and 5 replicates for groups (4-10). The doses and ratio of BMP-2 and heparin were based on those used in previous studies. […] All samples were assessed with 2D x-rays, μ-CT and histology to assess the extent of bone mineral deposition. […]
A μ-CT scanner (Skyscan 1076; Skyscan, Belgium) was utilized to scan the harvested specimens (resolution=35 μm; scanning width=68 mm) as per our previous methods. […] The total bone volume within the ROI was quantified by assigning a pre-determined threshold for total bone content. […]
Specimens were fixed in 10% formalin (neutral buffered) under vacuum for one week. […] All sections were examined with an Olympus Stereo (SZX12) and upright (BX51) fluorescence microscopes.

[3] = tested on: C2C12 cells; assay: Osteogenic differentiation and mineralization (Alizarin red); type: cell-based, murine; conditions: BMP-2 100 ng/mL, 5 μg/mL, 12 days
Experimental: C2C12 cells were maintained as described above and seeded at 5×10^3 cells/cm2 in tissue culture treated 12-well plates. Cells were cultured in osteogenic media (DMEM low glucose, 5% (v/v) FCS, 100 U/mL penicillin/streptomycin, 10 mM μ-glycerophosphate and 50 μg/mL ascorbic acid 2-phosphate) with or without BMP-2 (100 ng/mL) and heparin variants (5 μg/mL) for 12 days, with media being replenished every three days. Cells were washed with PBS and fixed with ice cold methanol for 20 min at −20° C. After fixation, cells were washed with water and stained with Alizarin red solution (0.1% (w/v), pH 4.3) for 20 min at room temperature with gentle agitation. Cells were then washed three times with water and imaged using a scanner. Alizarin red dye was extracted with 10% (v/v) acetic acid, neutralized with 10% (w/v) ammonium hydroxide and quantified using spectrophotometry (absorbance at 405 nm). Images are representative of at least three independent experiments and quantified Alizarin red stain represents mean±S.D. of three independent experiments.

B1: BMP-2: recombinant bone morphogenetic protein 2 purchased from R&D Systems (protein, UniProt P12643 283-396, looked up)
Bone morphogenetic protein 2: QAKHKQRKRLKSSCKRHPLYVDFSDVGWNDWIVAPPGYHAFYCHGECPFPLADHLNSTNHAIVQTLVNSVNSKIPKACCVPTELSAISMLYLDENEKVVLKNYQDMVVEGCGCR
Smad 1/5/9 phosphorylation ([1]; 24 h): detectable | Smad 1/5/9 phosphorylation ([1]; 48 h): detectable | Smad 1/5/9 phosphorylation ([1]; 72 h): no longer detectable; also recorded: barely detectable | increase in bone volume compared to control (Ctrl) ([2]; 5 μg BMP-2 on collagen sponge, μ-CT): ~16 fold | bone tissue in histological sections ([2]; 5 μg BMP-2 with or without 25 μg): deposition of a calcified bone matrix | mineralization (Alizarin red stain) [3]: not sufficient to induce mineralization

Entries after “also recorded” stand apart in the source; their conditions may differ.
